Reference: patent US7524826

Tests used:
[1] = molecular target: antithrombin of human plasma (human) (UniProt P01008); experiment: ELISA of thrombin-antithrombin complex, plasma on vector-transfected (pcDNA) T24/83 cells
[2] = molecular target: antithrombin of human plasma (human) (UniProt P01008); experiment: ELISA of thrombin-antithrombin complex, plasma on wild type T24/83 cells
[3] = molecular target: antithrombin of human plasma (human) (UniProt P01008); experiment: ELISA of thrombin-antithrombin complex, plasma on GRP78/BiP overexpressing T24/83 cells
[4] = molecular target: α2 macroglobulin of human plasma (human) (UniProt P01023); experiment: chromogenic assay after inhibiting free thrombin, plasma on wild type T24/83 cells
plasma inhibitors [5] = experiment: sum of thrombin-inhibitor complexes in plasma on wild type T24/83 cells
[6] = molecular target: α2 macroglobulin of human plasma (human) (UniProt P01023); experiment: chromogenic assay after inhibiting free thrombin, plasma on vector-transfected (pcDNA) T24/83 cells
[7] = molecular target: heparin cofactor II of human plasma (human) (UniProt P05546); experiment: ELISA of thrombin-heparin cofactor II complex, plasma on vector-transfected (pcDNA) T24/83 cells
[8] = molecular target: heparin cofactor II of human plasma (human) (UniProt P05546); experiment: ELISA of thrombin-heparin cofactor II complex, plasma on wild type T24/83 cells
[9] = molecular target: heparin cofactor II of human plasma (human) (UniProt P05546); experiment: ELISA of thrombin-heparin cofactor II complex, plasma on GRP78/BiP overexpressing T24/83 cells
[10] = molecular target: α2 macroglobulin of human plasma (human) (UniProt P01023); experiment: chromogenic assay after inhibiting free thrombin, plasma on GRP78/BiP overexpressing T24/83 cells
plasma inhibitors [11] = experiment: sum of thrombin-inhibitor complexes in plasma on vector-transfected (pcDNA) T24/83 cells
plasma inhibitors [12] = experiment: sum of thrombin-inhibitor complexes in plasma on GRP78/BiP overexpressing T24/83 cells

Row | concentration of thrombin covalently bound to inhibitor [1] | concentration of thrombin covalently bound to inhibitor [2] | concentration of thrombin covalently bound to inhibitor [3] | concentration of thrombin covalently bound to inhibitor [4] | concentration of thrombin covalently bound to inhibitor (plasma inhibitors [5]) | concentration of thrombin covalently bound to inhibitor [6] | concentration of thrombin covalently bound to inhibitor [7] | concentration of thrombin covalently bound to inhibitor [8] | concentration of thrombin covalently bound to inhibitor [9] | concentration of thrombin covalently bound to inhibitor [10] | concentration of thrombin covalently bound to inhibitor (plasma inhibitors [11]) | concentration of thrombin covalently bound to inhibitor (plasma inhibitors [12]) | Substance
1 | 610 nM | 631 nM | 161 nM | – | – | – | – | – | – | – | – | – | thrombin generated from normal pooled human plasma (from UniProt P00734 328-622) (enzyme; other documents disagree on this pair)
2 | – | – | – | 112 nM | 759 nM | 124 nM | 18 nM | 16 nM | 12 nM | 93 nM | 752 nM | 266 nM | thrombin generated from normal pooled human plasma (from UniProt P00734 328-622) (enzyme)
